Inhibition data for 103 molecules are collected here from PubChem BioAssay AID602261 (Sanford-Burnham Center for Chemical Genomics, 2012).

Amino acid sequences for entries named in this document (tags omitted).
UniProt P49327, whole entry, looked up: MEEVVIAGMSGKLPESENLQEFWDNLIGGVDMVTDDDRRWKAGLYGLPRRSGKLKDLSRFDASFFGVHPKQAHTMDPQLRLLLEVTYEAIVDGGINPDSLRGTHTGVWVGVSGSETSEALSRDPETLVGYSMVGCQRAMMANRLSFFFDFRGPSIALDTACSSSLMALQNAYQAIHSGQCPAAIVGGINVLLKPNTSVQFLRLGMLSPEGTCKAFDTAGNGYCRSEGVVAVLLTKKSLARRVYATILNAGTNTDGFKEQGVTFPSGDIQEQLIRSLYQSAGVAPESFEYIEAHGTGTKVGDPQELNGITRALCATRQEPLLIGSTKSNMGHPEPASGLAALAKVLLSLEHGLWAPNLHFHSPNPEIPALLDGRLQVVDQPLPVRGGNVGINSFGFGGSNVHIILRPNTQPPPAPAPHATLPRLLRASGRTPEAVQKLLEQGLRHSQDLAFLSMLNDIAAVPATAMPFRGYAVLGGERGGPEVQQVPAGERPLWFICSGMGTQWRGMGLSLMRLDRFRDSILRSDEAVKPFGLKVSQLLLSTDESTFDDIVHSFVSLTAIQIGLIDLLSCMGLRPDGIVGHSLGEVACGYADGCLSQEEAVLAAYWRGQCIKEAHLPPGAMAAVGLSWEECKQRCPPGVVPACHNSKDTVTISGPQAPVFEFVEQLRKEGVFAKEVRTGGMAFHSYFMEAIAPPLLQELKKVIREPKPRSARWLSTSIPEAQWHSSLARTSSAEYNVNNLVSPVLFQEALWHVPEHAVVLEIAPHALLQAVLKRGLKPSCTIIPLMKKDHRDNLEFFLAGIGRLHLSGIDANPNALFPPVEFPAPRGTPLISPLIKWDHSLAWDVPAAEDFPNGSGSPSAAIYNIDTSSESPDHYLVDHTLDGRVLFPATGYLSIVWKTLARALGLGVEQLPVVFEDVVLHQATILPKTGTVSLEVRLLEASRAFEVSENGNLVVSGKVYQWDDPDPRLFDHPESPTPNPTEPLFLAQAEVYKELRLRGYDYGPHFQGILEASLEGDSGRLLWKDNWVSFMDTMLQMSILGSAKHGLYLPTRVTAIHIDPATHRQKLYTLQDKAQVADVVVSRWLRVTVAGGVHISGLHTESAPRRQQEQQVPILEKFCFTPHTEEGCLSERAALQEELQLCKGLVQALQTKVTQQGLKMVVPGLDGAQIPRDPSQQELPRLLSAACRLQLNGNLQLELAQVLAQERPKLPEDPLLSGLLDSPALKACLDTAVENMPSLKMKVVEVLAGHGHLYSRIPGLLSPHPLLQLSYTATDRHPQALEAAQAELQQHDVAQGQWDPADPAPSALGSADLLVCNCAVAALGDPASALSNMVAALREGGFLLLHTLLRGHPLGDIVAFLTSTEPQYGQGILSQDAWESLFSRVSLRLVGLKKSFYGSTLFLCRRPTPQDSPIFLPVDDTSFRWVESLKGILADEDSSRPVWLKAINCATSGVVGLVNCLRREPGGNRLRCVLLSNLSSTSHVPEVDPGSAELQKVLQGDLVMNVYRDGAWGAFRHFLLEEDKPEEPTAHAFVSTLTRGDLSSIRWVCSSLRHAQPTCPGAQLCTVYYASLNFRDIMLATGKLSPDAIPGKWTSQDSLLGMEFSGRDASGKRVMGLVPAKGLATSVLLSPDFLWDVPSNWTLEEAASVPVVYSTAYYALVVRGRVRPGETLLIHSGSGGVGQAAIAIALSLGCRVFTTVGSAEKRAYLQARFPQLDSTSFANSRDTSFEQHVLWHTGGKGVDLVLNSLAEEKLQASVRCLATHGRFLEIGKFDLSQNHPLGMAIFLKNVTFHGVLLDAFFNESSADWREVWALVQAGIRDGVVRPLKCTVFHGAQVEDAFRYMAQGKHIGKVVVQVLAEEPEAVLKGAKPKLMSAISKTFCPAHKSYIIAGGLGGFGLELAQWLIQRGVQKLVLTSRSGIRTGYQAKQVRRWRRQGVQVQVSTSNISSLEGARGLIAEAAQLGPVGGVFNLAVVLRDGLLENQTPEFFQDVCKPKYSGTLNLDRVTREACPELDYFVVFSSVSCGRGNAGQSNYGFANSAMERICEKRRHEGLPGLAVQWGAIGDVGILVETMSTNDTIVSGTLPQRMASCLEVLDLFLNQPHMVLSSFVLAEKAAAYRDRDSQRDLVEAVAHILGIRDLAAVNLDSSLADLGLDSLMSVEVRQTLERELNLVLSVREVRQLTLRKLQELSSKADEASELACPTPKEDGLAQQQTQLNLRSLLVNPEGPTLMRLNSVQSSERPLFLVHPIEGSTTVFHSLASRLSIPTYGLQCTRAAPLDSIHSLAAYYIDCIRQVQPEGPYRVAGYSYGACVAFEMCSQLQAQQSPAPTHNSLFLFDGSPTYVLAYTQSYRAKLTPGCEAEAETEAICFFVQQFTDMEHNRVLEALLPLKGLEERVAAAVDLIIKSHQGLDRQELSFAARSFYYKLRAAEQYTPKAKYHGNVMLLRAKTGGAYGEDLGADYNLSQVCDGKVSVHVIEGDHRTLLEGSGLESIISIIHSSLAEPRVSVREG

Structures are written as SMILES. The entries are a selection whose mix differs from that of the whole data set. Active and inactive are the calls of the source.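 How the source made its calls: active means compounds whose normalised, plate-corrected inhibition of enzyme fluorescence in the single-dose primary screen is 50% or more; inactive means the rest.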

The target in this assay is Fatty acid synthase (Homo sapiens) (UniProt P49327). The assay is described as follows: inhibition of human FAS-TE enzyme activity – biochemical, fluorescence intensity, uHTS, primary screen (AID 602261).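 Further: 0% = DMSO with enzyme and 100% = substrate without enzyme.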 As to conditions: recombinant FAS-TE, OMFH fluorogenic substrate, fluorescence endpoint; at 15 µM; stronger effect = higher value.
For the molecule `O=P(Nc1nccs1)(c1ccccc1)c1ccccc1`, the inhibition is inactive: -8.4%.
For `CC(C)C(=O)NC(Sc1ccccc1)C(Cl)(Cl)Cl` (stereo not drawn) the value was inactive: -4.7%.
On to `c1nnnn1CCn1cnnn1`, for which the inhibition was inactive: -8%.
As to `COc1ccc(N)c([N+](=O)[O-])c1[N+](=O)[O-]`, the inhibition is inactive: 4.1%.
Take `Nc1ccc(CCCCOc2ccccc2)cc1`: the inhibition was inactive: 14.4%.
As to `CN(C)C1(CNC(=O)c2ccc(Cl)c(S(N)(=O)=O)c2)CCCCC1`, the inhibition was inactive: -9%.
For the molecule `O=P(Nc1ccccn1)(c1ccc(Br)cc1)c1ccc(Br)cc1`, the inhibition is inactive: 9%.
For `O=P(Nc1nc2ccccc2s1)(c1ccccc1)c1ccccc1` the value was inactive: -1.9%.
Then `C[C@H]1OP(=O)(Oc2ccccc2)[C@H](O)[C@H](O)[C@H]1N=[N+]=[N-]` (stereo partly drawn), with inactive: -7.3%; and `O=[N+]([O-])c1ncn(CCn2cnc([N+](=O)[O-])n2)n1`, with inactive: -6.7%; and `CC(=O)NC(SC(=S)N(C)C)C(Cl)(Cl)Cl` (stereo not drawn), with inactive: -21.8%.
As for `O=[N+]([O-])c1ccc(O)c(/C=N/Nc2ccc([N+](=O)[O-])cc2[N+](=O)[O-])c1`, the inhibition was active: 61.3%.
As for `O=[As](O)(c1ccccc1)c1ccc(O)cc1`, the inhibition is inactive: -4%.
Consider `C(Cc1nn[nH]n1)Cc1nn[nH]n1`, for which the inhibition was inactive: -11.6%.
`Nc1ccc([As](=O)(O)c2ccc([N+](=O)[O-])cc2)cc1`: the inhibition was inactive: -3.6%.
Then `O=C(OC1CN2CCC1CC2)c1cccc(Cl)c1` (stereo not drawn), with inactive: -7.1%; and `O=C(NC1CCS(=O)(=O)C1)NP(=S)(Oc1ccccc1)Oc1ccccc1` (stereo not drawn), with inactive: 2.4%; and `CCNC(=S)/N=C(\N)N[N+](=O)[O-]`, with inactive: -4.1%.
Take `c1ccc(-c2nn[nH]n2)c(-c2nn[nH]n2)c1`: the inhibition was inactive: -0.7%.
As for `Cc1ccc(NP(=O)(Oc2cccc(C)c2)Oc2cccc(C)c2)nc1`, the inhibition is inactive: -4.2%.
For `O=P1(N(CCCl)CCCl)OCCC2CCCCN21` (stereo not drawn) the value was inactive: -1.8%; for `COC(=O)c1cc2c(s1)N=C(c1ccccc1)N(C)P2(=O)N1CCOCC1` (stereo not drawn), inactive: -7.2%; for `Cc1ccc(OP(=O)(Nc2ccccn2)Oc2ccc(C)cc2)cc1`, inactive: 2.2%.
As to `CC(=O)NC(SC(=S)N(CC(C)C)CC(C)C)C(Cl)(Cl)Cl` (stereo not drawn), the inhibition was inactive: 3.9%.
For the molecule `O=C(OC1CN2CCC1CC2)c1ccccc1` (stereo not drawn), the inhibition is inactive: -2%.
On to `CCC(=O)N1C2C3N(C(=O)CC)C1C1N(C(=O)CC)C(C(N1C(=O)CC)N3C(=O)CC)N2C(=O)CC`, for which the inhibition was inactive: -5.7%.
With `CC(NC(=O)COC(=O)C(O)(c1ccccc1)c1ccccc1)c1ccccc1` (stereo not drawn), the inhibition is inactive: 3.8%.
For `Cc1ccccc1OP(=O)(Nc1ccccn1)Oc1ccccc1C` the value was inactive: 5.2%; for `O=c1c2cc([N+](=O)[O-])ccc2[nH]c2c([N+](=O)[O-])cc([N+](=O)[O-])cc12`, inactive: -5.3%; for `CN(C)C(=O)Oc1noc2ccccc12`, inactive: -8.5%.
In the case of `O=P1(Nc2nc3ccc(Cl)cc3s2)COc2ccccc2O1` (stereo not drawn), the inhibition is inactive: -5.7%.
Take `CCOc1ccc(C2=NCC(CBr)S2)cc1` (stereo not drawn): the inhibition is inactive: -2.8%.
With `CCc1cc(O)c([N+](=O)[O-])c(C)c1[N+](=O)[O-]`, the inhibition is inactive: -3.1%.
Turning to `CC(C)(C)C(=O)NC(Sc1ccccc1)C(Cl)(Cl)Cl` (stereo not drawn), the inhibition was inactive: 7.6%.
Then `CC(=O)c1ccc(N2CC2c2ccncc2)cc1` (stereo not drawn), with inactive: -4.1%; and `N#C/C(=C\c1ccc(N(CCBr)CCBr)cc1)C(N)=O`, with inactive: 0.8%.
Regarding `COC(=O)C1(C)COP(=O)(NCc2ccccc2)OC1` (stereo not drawn), the inhibition was inactive: -5.5%.
`Cc1ccccc1CN(C)C(=O)COC(=O)C(O)(c1ccccc1)c1ccccc1`: the inhibition was inactive: 2.1%.
Then `C[C@H]1OP(=O)(Oc2ccccc2)C[C@@H]2O[C@@H]21` (stereo partly drawn), with inactive: -9.5%.
Then `C[C@@H]1C=CCP(=O)(Oc2ccccc2)O1` (stereo partly drawn), with inactive: -5.6%; and `CC(=O)Nc1ccc([As](=O)(O)O)c(O)c1`, with inactive: -6.2%; and `CC(=O)Nc1ccc(Oc2c([N+](=O)[O-])cc([N+](=O)[O-])cc2[N+](=O)[O-])cc1`, with inactive: -3.7%.
Then `NC(=O)c1cc([N+](=O)[O-])cc([N+](=O)[O-])c1N`, with inactive: -6.4%; and `CN(C(=O)Cc1ccc(Cl)c(Cl)c1)[C@H]1CCCC[C@H]1N1CCCC1`, with inactive: -1.8%; and `Cc1ccc(N/C(=N/P(=O)(N2CCOCC2)N2CCOCC2)N2CCOCC2)cc1`, with inactive: 0.9%.
Consider `COc1ccccc1OP(=O)(Nc1ccc(C)cn1)Oc1ccccc1OC`, for which the inhibition was inactive: -7.8%.
Then `Cc1ccc(OP(=O)(Nc2nccs2)Oc2ccc(C)cc2)cc1`, with inactive: 1.9%; and `CN1CCCC(OC(=O)C(c2ccccc2)c2ccccc2)C1` (stereo not drawn), with inactive: -4.4%; and `Clc1ccc(Cl)c(NC2=NCC(CBr)S2)c1` (stereo not drawn), with inactive: 4.3%.
On to `Nc1cc(N)c2nonc2c1[N+](=O)[O-]`, for which the inhibition is inactive: -5.5%.
Then `CC(C)CC(=O)NC(Sc1ccc(Cl)cc1)C(Cl)(Cl)Cl` (stereo not drawn), with inactive: 4.1%.
On to `Oc1ccccc1CNc1ccccn1`, for which the inhibition is inactive: -3.2%.
Then `O=C(NC(Sc1ccncn1)C(Cl)(Cl)Cl)c1ccccc1` (stereo not drawn), with inactive: -9.9%.
Then `O=[N+]([O-])C1C(O)C(O)C([N+](=O)[O-])C(O)C1O` (stereo not drawn), with inactive: -2.5%; and `CC(=O)Nc1ccc([As](=O)(O)O)cc1`, with inactive: -1.1%; and `O=C(O)c1ccccc1[As](=O)(O)O`, with inactive: 48.6%.
Then `CCCC1OP(N)(=O)OCC1CC` (stereo not drawn), with inactive: -8.9%; and `O=P(Nc1nc2ccc(Cl)cc2s1)(c1ccccc1)c1ccccc1`, with inactive: 12.9%; and `CN(C)P(=O)(N(C)C)n1c(Nc2ccccc2)nnc1-c1ccccc1`, with inactive: 9.7%.
For `Cc1cc(SC(NC(=O)c2ccc(F)cc2)C(Cl)(Cl)Cl)ncn1` (stereo not drawn), the inhibition is inactive: -5.4%.
For `CCOP(=O)(Nc1ccccc1)OCC` the value was inactive: -3.4%; for `CN(C(=O)Cc1ccc(Cl)c(Cl)c1)[C@H]1CCCC[C@@H]1N1CCCC1`, inactive: 2.5%.
In the case of `Cc1ccc(NP(=O)(Oc2ccccc2F)Oc2ccccc2F)nc1`, the inhibition is inactive: -0.1%.
For `CCN(N=Nc1nonc1N)c1nonc1N`, the inhibition was inactive: -4.5%.
As for `Nc1cccc2ccc([As](=O)(O)O)cc12`, the inhibition is inactive: -1.4%.
Then `O=P1(N(CCCl)CCCl)OCCCS1` (stereo not drawn), with inactive: -10.1%; and `O=C(Nc1cc([As](=O)(O)O)ccc1O)c1ccccc1`, with inactive: -6.4%.
For the molecule `CC(C)(C)C(=O)NC(Sc1ccncn1)C(Cl)(Cl)Cl` (stereo not drawn), the inhibition was inactive: -1.2%.
For `O=[N+]([O-])c1ncn(CCn2ncnc2[N+](=O)[O-])n1`, the inhibition is inactive: -3.8%.
On to `COC(=O)C1(C)COP(=O)(Nc2ccccc2)OC1` (stereo not drawn), for which the inhibition is inactive: -3.9%.
As for `O=[N+]([O-])c1cccc(NC2=NCC(CBr)S2)c1` (stereo not drawn), the inhibition is inactive: 9.9%.
On to `O=C(O)CNc1ccc([As](=O)(O)O)cc1`, for which the inhibition is inactive: -9.5%.
Consider `COc1ccc(C2=NCC(CBr)S2)cc1` (stereo not drawn), for which the inhibition is inactive: -2.6%.
With `CC(=O)N1C2C3N(C(C)=O)C1C1N(C(C)=O)C(C(N1C(C)=O)N3C(C)=O)N2C(C)=O`, the inhibition is inactive: -5.6%.
As to `O=[N+]([O-])c1cccc2n[nH]nc12`, the inhibition is inactive: -5%.
As to `Cc1ccc(NP(=O)(Oc2ccccc2)Oc2ccccc2)nc1`, the inhibition was inactive: 1.3%.
On to `O=[N+]([O-])c1cc([N+](=O)[O-])c(CCNc2ccccc2)c([N+](=O)[O-])c1`, for which the inhibition was inactive: -168%.
`CCc1nc2c(n1)c1c(non1O)c1c2no[n+]1[O-]`: the inhibition was inactive: 2.9%.
Then `Nc1ccc([As](=O)(O)c2ccc(N)cc2)cc1`, with inactive: -11.6%; and `C[N+]1=C2C=CC=CC=C2SC12C([N+](=O)[O-])=CC([N+](=O)[O-])=C[C-]2[N+](=O)[O-]` (stereo not drawn), with inactive: 6.3%; and `CCN(/C(=N/P(=O)(N1CCOCC1)N1CCOCC1)N1CCOCC1)c1ccc(OC)cc1`, with inactive: -2.6%.
On to `CC(C)c1nc(Nc2ccccc2)n(P(=O)(N(C)C)N(C)C)n1`, for which the inhibition is inactive: -4.3%.
Consider `CC(C)=N/N=C(\N)N[N+](=O)[O-]`, for which the inhibition is inactive: -6.8%.
Consider `CN(C)C(=O)OCCc1n(C)cc[n+]1C`, for which the inhibition was inactive: -9.2%.
Take `CC1CCN(C(=O)Oc2c(Cl)cc(Cl)c3cccnc23)CC1`: the inhibition was inactive: 7.4%.
Consider `c1cc(-c2nn[nH]n2)ccc1-c1nn[nH]n1`, for which the inhibition is inactive: -5.5%.
`COP1(=S)c2c(C)nn(CCC#N)c2N=C(c2ccc(F)cc2)N1C` (stereo not drawn): the inhibition was inactive: -5.6%.
Then `COC(=O)C1(C)COP(=O)(N2CCCC2)OC1` (stereo not drawn), with inactive: -1.4%.
With `O=C(COc1ccccc1)OC1CN2CCC1CC2` (stereo not drawn), the inhibition was inactive: -3.9%.
Then `O=C(Nc1ccncc1[N+](=O)[O-])c1ccc([N+](=O)[O-])cc1[N+](=O)[O-]`, with inactive: -1.9%; and `O=C(O)C(=O)c1ccc(N(CCCl)CCCl)cc1`, with inactive: -7.5%.
Regarding `CCOC(=O)c1ccc(NC(=O)C(C)(CCl)SC)cc1` (stereo not drawn), the inhibition is inactive: -6.2%.
With `O=C(OC1CN2CCC1CC2)c1cccc([N+](=O)[O-])c1` (stereo not drawn), the inhibition was inactive: -8.6%.
`CSc1ccc(Nc2c([N+](=O)[O-])cc([N+](=O)[O-])cc2[N+](=O)[O-])cc1`: the inhibition was inactive: 10.7%.
For `CCC(C)N(CC(C)C)C(=S)SC(NC(C)=O)C(Cl)(Cl)Cl` (stereo not drawn), the inhibition is inactive: 15.3%.
With `CC1CCNP(=O)(N(CCCl)CCCl)O1` (stereo not drawn), the inhibition is inactive: -3.7%.
For `O=C(O)C(O)c1ccc(N(CCCl)CCCl)cc1` (stereo not drawn), the inhibition was inactive: -6.9%.
With `CCOC(=O)Nc1ccc([As](=O)(O)O)c(O)c1`, the inhibition is inactive: -5.2%.
Turning to `CCCCOc1ccc(C(=O)NCC2(N3CCCCC3)CCCCC2)cc1OC`, the inhibition was inactive: -3.6%.
As for `Cc1cc(SC(NC(=O)c2ccccc2)C(Cl)(Cl)Cl)nc(C(C)C)n1` (stereo not drawn), the inhibition is inactive: -1.3%.
For the molecule `COP(=O)(OC)N1CC1c1ccccc1` (stereo not drawn), the inhibition is inactive: -6.6%.
Turning to `CCOC(=O)Nc1cccc([As](=O)(O)O)c1`, the inhibition is inactive: -0.4%.
As to `O=[N+]([O-])c1ccc(Nc2ccc(Oc3ccc([N+](=O)[O-])cc3[N+](=O)[O-])cc2)c([N+](=O)[O-])c1`, the inhibition is inactive: 31.3%.

As usually defined, the inhibition is the change of the read-out against control, counted positive when it falls.
